Test results reported in US20040018971A1 (published 2004).

Columns and labels:
HLA-A*0202 [1] = molecular target: HLA-A*0202 (human); experiment: competition with 125I probe peptide for purified HLA
HLA-B*3501 [2] = molecular target: HLA-B*3501 (human); experiment: competition vs 125I-labelled probe peptide, purified HLA, gel filtration
HLA-A*0206 [3] = molecular target: HLA-A*0206 (human); experiment: competition with 125I probe peptide for purified HLA
HLA-A*0101 = molecular target: T1, HLA-A*0101 (human); experiment: inhibition of 125I-labeled probe peptide binding to purified HLA-A*0101, gel filtration
T1 construct: also called HLA-A1

HLA-B*5401 [4] = molecular target: HLA-B*5401 (human); experiment: competition with 125I probe peptide, purified HLA
HLA-A*0202 [5] = molecular target: T2, HLA-A*0202 (human); experiment: competition for purified HLA vs 125I-labelled probe peptide, gel filtration
T2 construct: purified HLA class I molecule

HLA-A*0202 [6] = molecular target: HLA-A*0202 (human); experiment: competition with 125I-labelled probe peptide for purified HLA, gel filtration
HLA-B*3501 [7] = molecular target: HLA-B*3501 (human); experiment: competition vs 125I-labeled standard peptide, purified HLA
HLA-B*5401 [8] = molecular target: HLA-B*5401 (human); experiment: competition vs 125I-labelled probe peptide, purified HLA, gel filtration
HLA-A*0203 = HLA-A*0203 (human); experiment: competition with 125I probe peptide for purified HLA
HLA-A*0206 [9] = molecular target: T3, HLA-A*0206 (human); experiment: competition for purified HLA vs 125I-labelled probe peptide, gel filtration
T3 construct: purified HLA class I molecule

B1: Her2/neu.952 (10-mer) YMIMVKCWMI (peptide)
peptide: YMIMVKCWMI
HLA-A*0202 [1]
  IC50: 0.307 µM

B2: Her2/neu.995.F1I10 (peptide)
peptide: FPASPLDSTI
notes: 10-mer analog of the HER2/neu peptide starting at position 995
HLA-B*3501 [2]
  IC50: 0.514 µM

B3: Her2/neu.5B3V9 ALBRWGLLV (peptide)
peptide: ALBRWGLLV
modifications: B at position 3 = alpha-amino butyric acid
HLA-A*0206 [3]
  IC50: 0.285 µM

B4: Her2/neu 1214.D3 (peptide)
peptide: SPDFDNLYY
notes: HER2/neu analog peptide
HLA-A*0101
  IC50: 0.0735 µM

B5: Her2/neu.600.I11 (peptide)
peptide: CPSGVKPDLSI
notes: analog peptide
HLA-B*5401 [4]
  IC50: 0.625 µM

B6: Her2/neu.600.F1I11 (peptide)
peptide: FPSGVKPDLSI
notes: analog peptide
HLA-B*5401 [4]
  IC50: 0.208 µM

B7: Her2/neu.952 (peptide)
peptide: YMIMVKCWMI
notes: 10-mer
HLA-A*0202 [5]
  IC50: 0.307 µM

B8: Her2/neu.952 (10-mer) (peptide)
peptide: YMIMVKCWMI
notes: Synthetic wild-type 10-mer starting at position 952 of HER2/neu
HLA-A*0202 [6]
  IC50: 0.307 µM

B9: Her2/neu.706.F1I10 (peptide)
peptide: FPNQAQMRII
notes: 10-mer analog of the HER2/neu peptide starting at position 706
HLA-B*3501 [7]
  IC50: 0.514 µM

B10: Her2/neu.1101.F1 (peptide)
peptide: FPTHDPSPL
HLA-B*5401 [8]
  IC50: 0.208 µM

B11: Her2/neu.952 (9-mer) YMIMVKCWM (peptide)
peptide: YMIMVKCWM
HLA-A*0203
  IC50: 0.625 µM

B12: Her2/neu.5.B3V9 (peptide)
peptide: ALBRWGLLV
modifications: B at position 3 = alpha-amino butyric acid
notes: analog of Her2/neu.5; also called ALBRWGLLV
HLA-A*0206 [9]
  IC50: 0.285 µM
